Reference: US6805863B2, “Methods of modulating immune coagulation” (Trillium Therapeutics Inc., priority 1997, dated 2004)

Tested on: 125I-prothrombin
Assay: Prothrombin cleavage assay
Type: biochemical
Details: FIG. 22
Method: To determine if the expressed fusion protein acts as a direct prothrombinase, the prothrombin cleavage assay was performed as previously described (Schwartz et al., 1982). 125I-prothrombin was incubated with High 5 cells, both infected or uninfected with the recombinant virus. Purified mfg12 fusion protein was also studied to determine its ability to cleave prothrombin. Human Factor Xa in the presence of Russell's viper venom (RVV) was used as a positive control. Samples were run on 10% SDS-PAGE and analyzed by autoradiography for 125I-prothrombin and their cleavage products.

human factor X: positive control of the prothrombin cleavage assay [reference compound]
cleavage of 125I-prothrombin (SDS-PAGE autoradiography): cleavage products corresponding to known derivatives of prothrombin
